# Earlier results, collected in US20140171490A1, “Method and Device for Ophthalmic Administration of Active Pharmaceutical Ingredients” (PHARMALIGHT INC., priority 2005, published 2014).
# Test system: eye
# Settings: reported in Saettone et al. Int. J. Pharma. 1996; cited from earlier work
substance,measurement,value
escin,irritation to the eye,strongly irritating to the eye
